Measured values as given in PMC9657098, “Synthesis, In Vitro Biological Evaluation and In Silico Molecular Docking Studies of Indole Based Thiadiazole Derivatives as Dual Inhibitor of Acetylcholinesterase and Butyrylchloinesterase” (Molecules, 2022).

By UniProt entry, the sequences of proteins in these tests, tags left out. Residues count along the entry.
UniProt P22303, 32-614 limits assumed: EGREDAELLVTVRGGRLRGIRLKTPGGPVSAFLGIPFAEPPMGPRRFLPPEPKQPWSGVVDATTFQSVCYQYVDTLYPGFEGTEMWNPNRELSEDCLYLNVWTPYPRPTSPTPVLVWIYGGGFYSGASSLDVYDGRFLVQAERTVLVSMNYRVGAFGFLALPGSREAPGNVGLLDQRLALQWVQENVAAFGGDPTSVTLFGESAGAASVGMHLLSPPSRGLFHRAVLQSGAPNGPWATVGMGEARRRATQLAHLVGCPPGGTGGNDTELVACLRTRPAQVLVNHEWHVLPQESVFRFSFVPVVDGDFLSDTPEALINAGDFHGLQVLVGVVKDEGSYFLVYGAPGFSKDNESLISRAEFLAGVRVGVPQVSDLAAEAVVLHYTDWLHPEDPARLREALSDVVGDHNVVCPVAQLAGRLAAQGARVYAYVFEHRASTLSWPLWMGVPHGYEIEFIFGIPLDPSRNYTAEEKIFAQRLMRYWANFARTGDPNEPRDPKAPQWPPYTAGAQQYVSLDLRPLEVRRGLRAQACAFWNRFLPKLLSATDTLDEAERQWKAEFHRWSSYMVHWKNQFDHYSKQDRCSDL
UniProt P06276, 29-602 limits assumed: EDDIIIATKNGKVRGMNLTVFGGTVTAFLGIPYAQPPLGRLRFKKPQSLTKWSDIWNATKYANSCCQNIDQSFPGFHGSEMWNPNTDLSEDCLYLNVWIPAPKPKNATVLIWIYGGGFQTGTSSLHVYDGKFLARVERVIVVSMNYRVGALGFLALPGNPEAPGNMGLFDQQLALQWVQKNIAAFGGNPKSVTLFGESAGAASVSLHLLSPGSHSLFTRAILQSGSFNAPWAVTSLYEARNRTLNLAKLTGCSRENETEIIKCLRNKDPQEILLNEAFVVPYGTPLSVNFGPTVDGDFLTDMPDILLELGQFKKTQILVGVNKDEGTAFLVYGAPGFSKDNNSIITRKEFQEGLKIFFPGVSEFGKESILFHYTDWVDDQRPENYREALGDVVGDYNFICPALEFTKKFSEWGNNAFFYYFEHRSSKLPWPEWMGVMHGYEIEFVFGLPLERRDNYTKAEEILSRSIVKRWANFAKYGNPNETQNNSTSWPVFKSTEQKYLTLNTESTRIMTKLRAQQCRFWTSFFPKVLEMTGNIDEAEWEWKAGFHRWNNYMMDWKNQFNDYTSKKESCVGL

How the values were obtained:
AChE = AChE (Homo sapiens, UniProt P22303); settings: pH 8
BuChE = BuChE (Homo sapiens, UniProt P06276); settings: read-out: BuChE IC50 (µM ± SEM); in vitro enzyme inhibition

| SMILES | IC50 (AChE) | IC50 (BuChE) |
| --- | --- | --- |
| O=[N+]([O-])c1cc(Nc2nnc(Cc3cc4cc(Cl)ccc4[nH]3)s2)ccc1Cl | 2100 nM | 2.8 µM |
| O=[N+]([O-])c1ccc(Nc2nnc(Cc3cc4cc(Cl)ccc4[nH]3)s2)cc1Cl | 2900 nM | 4.6 µM |
